For the data set the following is noted: tibial cancellous bone adjacent to cannula, pig, 500 mg intraosseous, no tourniquet, microdialysis, 12 h, mean (SD), n = 8.

Each structure is given as a SMILES string.

In the case of `CN[C@H](CC(C)C)C(=O)N[C@H]1C(=O)N[C@@H](CC(N)=O)C(=O)N[C@H]2C(=O)N[C@H]3C(=O)N[C@H](C(=O)N[C@H](C(=O)O)c4cc(O)cc(O)c4-c4cc3ccc4O)[C@H](O)c3ccc(c(Cl)c3)Oc3cc2cc(c3O[C@@H]2O[C@H](CO)[C@@H](O)[C@H](O)[C@H]2O[C@H]2C[C@](C)(N)[C@H](O)[C@H](C)O2)Oc2ccc(cc2Cl)[C@H]1O` [vancomycin], the “Cmax (peak drug concentration)” value was 1236 (1883) µg/mL.

The record behind these values is paper PMC8129907, “Vancomycin bone and tissue concentrations following tibial intraosseous administration – evaluated in a porcine model” (Journal of Bone and Joint Infection, 2021).
